The target of one assay is T1, human GluN2D (Homo sapiens, UniProt O15399+Q05586).
T1 construct: expressed in transfected cells; host or cells: HEK cells
Kind of assay: Ca2+ fluorescence (fluo-8) assay in HEK cells expressing GluN2D. Format: cell-based. Particulars: HEK293, read-out: GluN2D % Inhib. @ 10 μM ± SEM (n).

Sequences of proteins named here, by UniProt entry; tags and fusion partners are left off. Residues count along the entry.
UniProt O15399, 28-1336: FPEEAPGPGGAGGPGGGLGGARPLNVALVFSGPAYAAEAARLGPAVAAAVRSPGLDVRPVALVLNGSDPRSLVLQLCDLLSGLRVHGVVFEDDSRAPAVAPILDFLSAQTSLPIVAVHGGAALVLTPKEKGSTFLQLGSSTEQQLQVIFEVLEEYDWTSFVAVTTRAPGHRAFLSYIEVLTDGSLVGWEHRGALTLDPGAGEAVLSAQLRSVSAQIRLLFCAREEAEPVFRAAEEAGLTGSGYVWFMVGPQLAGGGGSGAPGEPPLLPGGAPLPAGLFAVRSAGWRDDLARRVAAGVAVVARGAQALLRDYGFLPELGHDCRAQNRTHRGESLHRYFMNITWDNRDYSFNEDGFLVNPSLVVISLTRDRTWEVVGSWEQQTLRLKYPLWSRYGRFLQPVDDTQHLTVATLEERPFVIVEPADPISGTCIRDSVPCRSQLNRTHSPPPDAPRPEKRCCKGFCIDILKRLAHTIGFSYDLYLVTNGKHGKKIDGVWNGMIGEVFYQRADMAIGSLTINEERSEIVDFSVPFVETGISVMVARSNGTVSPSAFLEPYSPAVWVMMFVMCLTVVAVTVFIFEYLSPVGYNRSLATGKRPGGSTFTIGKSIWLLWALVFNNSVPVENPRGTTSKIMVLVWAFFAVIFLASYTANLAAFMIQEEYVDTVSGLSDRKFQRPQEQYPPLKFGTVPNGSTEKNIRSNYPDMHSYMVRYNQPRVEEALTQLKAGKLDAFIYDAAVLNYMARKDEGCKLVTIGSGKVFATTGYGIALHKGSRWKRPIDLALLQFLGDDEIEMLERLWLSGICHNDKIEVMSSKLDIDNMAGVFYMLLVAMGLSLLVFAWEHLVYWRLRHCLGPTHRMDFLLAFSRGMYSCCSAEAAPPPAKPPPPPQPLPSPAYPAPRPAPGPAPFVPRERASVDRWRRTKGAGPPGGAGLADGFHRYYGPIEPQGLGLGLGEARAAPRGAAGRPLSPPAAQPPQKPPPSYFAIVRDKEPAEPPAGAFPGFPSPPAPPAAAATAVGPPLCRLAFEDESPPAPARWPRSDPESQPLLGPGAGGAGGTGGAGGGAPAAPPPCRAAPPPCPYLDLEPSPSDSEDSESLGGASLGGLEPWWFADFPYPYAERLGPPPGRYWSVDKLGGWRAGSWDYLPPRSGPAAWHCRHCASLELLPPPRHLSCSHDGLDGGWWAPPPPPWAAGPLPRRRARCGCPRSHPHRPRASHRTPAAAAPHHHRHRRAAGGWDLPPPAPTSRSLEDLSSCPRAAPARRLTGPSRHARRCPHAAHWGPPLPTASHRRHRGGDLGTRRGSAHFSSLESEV
UniProt Q13224, 27-1484: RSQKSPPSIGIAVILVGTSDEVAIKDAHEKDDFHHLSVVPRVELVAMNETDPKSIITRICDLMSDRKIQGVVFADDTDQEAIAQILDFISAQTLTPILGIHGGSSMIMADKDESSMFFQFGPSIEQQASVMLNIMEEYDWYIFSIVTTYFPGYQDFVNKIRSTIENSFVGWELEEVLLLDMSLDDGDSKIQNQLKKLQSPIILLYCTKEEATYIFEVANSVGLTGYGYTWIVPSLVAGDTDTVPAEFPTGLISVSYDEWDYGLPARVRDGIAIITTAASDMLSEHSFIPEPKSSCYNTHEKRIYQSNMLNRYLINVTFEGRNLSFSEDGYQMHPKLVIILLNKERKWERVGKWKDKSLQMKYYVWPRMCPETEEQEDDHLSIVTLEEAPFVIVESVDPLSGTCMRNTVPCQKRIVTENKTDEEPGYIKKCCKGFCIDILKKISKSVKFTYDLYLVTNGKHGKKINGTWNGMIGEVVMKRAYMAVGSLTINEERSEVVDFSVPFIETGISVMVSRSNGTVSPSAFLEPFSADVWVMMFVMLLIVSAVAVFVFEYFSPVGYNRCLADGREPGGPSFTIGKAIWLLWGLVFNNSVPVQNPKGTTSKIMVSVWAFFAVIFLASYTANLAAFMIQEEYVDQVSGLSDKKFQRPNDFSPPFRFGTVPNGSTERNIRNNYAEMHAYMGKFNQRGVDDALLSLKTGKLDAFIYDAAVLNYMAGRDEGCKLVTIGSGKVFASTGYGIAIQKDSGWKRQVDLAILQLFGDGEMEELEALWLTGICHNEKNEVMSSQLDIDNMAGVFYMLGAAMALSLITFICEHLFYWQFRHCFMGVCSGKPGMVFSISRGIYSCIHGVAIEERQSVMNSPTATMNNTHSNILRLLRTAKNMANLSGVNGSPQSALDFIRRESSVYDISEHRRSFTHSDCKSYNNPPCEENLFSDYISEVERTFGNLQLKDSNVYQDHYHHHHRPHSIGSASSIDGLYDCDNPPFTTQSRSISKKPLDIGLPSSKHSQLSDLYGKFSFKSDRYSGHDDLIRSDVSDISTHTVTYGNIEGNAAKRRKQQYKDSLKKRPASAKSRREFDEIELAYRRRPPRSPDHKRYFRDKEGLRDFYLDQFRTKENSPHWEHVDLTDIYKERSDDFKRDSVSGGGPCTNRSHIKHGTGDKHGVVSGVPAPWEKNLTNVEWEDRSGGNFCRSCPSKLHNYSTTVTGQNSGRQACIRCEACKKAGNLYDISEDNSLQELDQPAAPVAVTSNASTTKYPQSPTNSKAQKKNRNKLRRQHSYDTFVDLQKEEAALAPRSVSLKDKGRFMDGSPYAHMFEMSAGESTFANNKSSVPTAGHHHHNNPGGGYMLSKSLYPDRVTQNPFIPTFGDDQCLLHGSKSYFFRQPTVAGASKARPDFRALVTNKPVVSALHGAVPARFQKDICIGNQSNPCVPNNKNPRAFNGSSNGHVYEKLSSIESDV

For the next assay, the target named is T2, human GluN2B (Homo sapiens, UniProt Q05586+Q13224).
T2 construct: expressed in transfected cells; host or cells: HEK cells
Kind of assay: Ca2+ fluorescence (fluo-8) assay in HEK cells expressing GluN2B. Format: cell-based. Particulars: HEK293, read-out: GluN2B % Inhib. @ 10 μM ± SEM (n).

For `O=C(NNC(=O)c1ccc(CNS(=O)(=O)c2ccc(F)c(Cl)c2)cc1)c1ccccc1` [TCN-201, 3-chloro-4-fluoro-N-[4-[[2-(phenylcarbonyl)hydrazino]carbonyl]benzyl]benzenesulfonamide, reference compound], the inhibition at 10 µM at human GluN2D is -8 ± 6%; on human GluN2B it was 30 ± 10%.

For the origin of these results see publication PMC4734667 (PLoS ONE, 2016).
